According to patent US12544366B2, “Combination of endocannabinoid and mTOR inhibitors in the treatment of neuroendocrine neoplasms” (HADASIT MEDICAL RESEARCH SERVICES AND DEVELOPMENT LTD., priority 2022, dated 2026):

Tested on: lung NCI-H727 tumor xenograft
Experiment: Subcutaneous NEN xenograft tumor model

Q: `CO[C@H]1C[C@@H]2CC[C@@H](C)[C@@](O)(O2)C(=O)C(=O)N2CCCC[C@H]2C(=O)O[C@H]([C@H](C)C[C@@H]2CC[C@@H](OCCO)[C@H](OC)C2)CC(=O)[C@H](C)/C=C(\C)[C@@H](O)[C@@H](OC)C(=O)[C@H](C)C[C@H](C)/C=C/C=C/C=C/1C` [Everolimus, everolimus] was tested. Which “tumor biomass at the beginning of the treatment” value (2nd week, days 6-10, compared to control PBS) did it give?
A: Its value is “reduced tumor biomass”.

Q: And the “tumor biomass at later stage (resistance analysis)” value (4th week, days 20-23)?
A: The value was “constant increase in tumor biomass in similar levels to the control PBS”.
